Measured values: patent US10342867B2 (priority 2014, dated 2019)

Assays:
[1] = rabbit, in vivo
[2] = rabbit, in vivo; remark: listed apart in the source
[3] = rabbit, in vivo; remark: listed apart in the source

Row | Substance | Concentration giving 50% hemolysis (sheep red blood cells) [µg/mL] | hemolytic activity, fold lower than that of the POLYs (sheep red blood cells) | Body weight gain one week post immunization 1, mean [1] [g] | Body weight gain two weeks post immunization 1, mean [1] [g] | Reactogenicity 1 week post immunization 2, GMS [2] | Reactogenicity 4 weeks post immunization 1, GMS [2] | Reactogenicity 4 weeks post immunization 1, antilog [2] | Increase in body temperature one day post immunization 1, mean [3] [°C] | Increase in body temperature two days post immunization 1, mean [3] [°C] | further results
1 | Monosulphate heptadecylmaltose [M10-MONO] | >10000 | 100 to >3000 | – | – | – | – | – | – | – | –
2 | maltotriose decanoic acid polysulphate ester [T10-POLY] | 100 | – | – | – | – | – | – | – | – | –
3 | maltose decanoic acid polysulphate ester [M10-POLY] | 300 | – | – | – | – | – | – | – | – | –
4 | galactose tetradecanoic acid monosulphate ester [G10-MONO] | >10000 | 100 to >3000 | 75 | 138 | 1.70 | 0.21 | 2 | 0.3 | 0.0 | Reactogenicity 1 week post immunization 2, antilog [2]: 51; Toxicity score of the site of injection, individual animal [2]: 0.10; Toxicity score of the site of injection, individual animal, antilog [2]: 1; increases in body temperature in comparison to the corresponding POLY counterpart [3]: lower increases
5 | galactose decanoic acid polysulphate ester [G10-POLY] | 3 | – | 17 | 38 | 4.09 | 0.75 | 6 | 0.4 | 0.0 | –
6 | maltotriose nona-/decadecanoic acid monosulphate ester [T10-MONO] | >10000 | 100 to >3000 | – | – | – | – | – | – | – | –
